Data set [1] addresses mTOR (Homo sapiens, UniProt P42345). As to the kind of experiment: mTOR cell assay. In kind it is cell-based.
Data set [2] can be described thus: Solubility. In kind it is physicochemical.
Data set [3] in a line: Mouse brain Kp,uu. Format: in vivo. To be noted: female, nu/nu, not told, oral, 10 mg/kg.
Data set [4] can be described thus: Rat brain Kp,uu. Format: in vivo. As to conditions: male, Han Wistar, not told, oral, 10 mg/kg.
A short description of data set [5]: Cynomolgus macaque brain PET. As to conditions: 11C-labeled intravenous microdose. In kind it is in vivo.

SMILES strings stand for the structures.

In turn, `CN(C)CCCOc1ccc(-c2ccc3ncc4c(c3c2)n(C2CCOCC2)c(=O)n4C)cn1` [AZD0156, 8-{6-[3-(dimethylamino)propoxy]pyridin-3-yl}-3-methyl-1-(tetrahydro-2H-pyran-4-yl)-1,3-dihydro-2H-imidazo[4,5-c]quinolin-2-one, reference compound] yielded an IC50 in data set [1] of 1400 nM. Also, in data set [2], the solid-state assessment result is “crystalline”. The Kp amounted to 0.006 in data set [3] and 0.027 in data set [4]. Further, the “brain Cmax (%ID)” value in data set [5] is given as 0.15 ± 0.036 %ID.

(Values after PMC6010333 (Science Advances, 2018).)
